# Measurements taken from patent publication US20130115671A1, “ENZYMES FROM CONIDIOBOLUS BREFELDIANUS AND PROCESS FOR PREPARATION THEREOF” (Council of Scientific and Industrial Research, priority 2010, published 2013).
# Columns and labels:
# [1] = system: protease from Conidiobolus brefeldianus MTCC 5185; test: Stability of protease in presence of organic solvents at 37° C.; assay type: physicochemical; conditions: 20% (v/v) solvent
# Method: This example illustrates the effect of water miscible as well as water immiscible organic solvents on stability of crude protease at 37° C. […] Samples were removed at different time intervals and residual activity was estimated. Sample without organic solvent served as control.
# [2] = system: protease from Conidiobolus brefeldianus MTCC 5185; test: Stability of protease in presence of organic solvents at 28° C.; assay type: physicochemical; parameters: key to residual activity of protease, 0 h: % of initial activity with respective solvent (initial = 100%); conditions: crude protease, 20% (v/v) solvent
# Method: This example illustrates the effect of water miscible as well as water immiscible organic solvents on stability of crude protease at 28° C. […] Samples were removed at different time intervals and residual activity was estimated. Sample without organic solvent served as control. Initial activity with respective solvents was taken as 100% (Table 17). […] (Table 17).
substance,measurement,setting,value
1-butanol,"Residual Activity (%) of protease, 30 min","[1]; pH 7, 30 min",47.57%
same,"Residual Activity (%) of protease, 60 min","[1]; pH 7, 60 min",30.60%
same,"Residual Activity (%) of protease, 120 min","[1]; pH 7, 120 min",33.00%
same,"Residual Activity (%) of protease, 240 min","[1]; pH 7, 240 min",13.53%
same,"Residual Activity (%) of protease, 0","[1]; crude protease, pH 7, 0 min",100%
same,"residual activity of protease, 0 h",[2]; 0 h,100
same,"residual activity of protease, 5 h",[2]; 5 h,75.26
same,"residual activity of protease, 12 h",[2],39.93
same,"residual activity of protease, 12 h",[2]; listed as butanol,around 40
